The species named for assay [1] is Homo sapiens. The assay can be described thus: Selectivity ratio, ratio of IC50 for caspase-8 (unknown origin) to IC50 for His-tagged human MALT1 (catalytic domain-339-719 aa).
The species named for assay [2] is Homo sapiens. The assay can be described thus: Selectivity ratio, ratio of IC50 for cathepsin B (unknown origin) to IC50 for His-tagged human MALT1 (catalytic domain-339-719 aa).

Drawing on ChEMBL document CHEMBL3632578, “Identification of β-Lapachone Analogs as Novel MALT1 Inhibitors To Treat an Aggressive Subtype of Diffuse Large B-Cell Lymphoma” (J Med Chem, 2015), this text covers Ratio IC50 for one compound.

On to `CC1(C)CCC2=C(O1)c1ccc(C#N)cc1C(=O)C2=O`, for which the Ratio IC50 in the assay listed under Homo sapiens [1] and in the assay listed under Homo sapiens [2] was 16 each time.
